Values quoted from earlier work in publication PMC4481117 (Molecular Pain, 2015).

Test system: opioid receptor
Design: method as in PMID 7642746, PMID 6207329, PMID 2844685
Details: cited from earlier work
Source text: Apart from their effects on κ-opioid receptors on neurons, Dyn A exerts numerous effects on leukocytes, particularly myeloid cells. […] In addition, Dyn A (residues 1–13) and Dyn A (residues 1–9) stimulate ...

C=CCN1CC[C@]23c4c5ccc(O)c4O[C@H]2C(=O)CC[C@@]3(O)[C@H]1C5 [naloxone]
Block of phagocytosis, degranulation and chemotaxis by naloxone: could not be blocked or were blocked partially
